We go through one compound from ChEMBL document CHEMBL2380296, “Structure-based design and optimization of 2-aminothiazole-4-carboxamide as a new class of CHK1 inhibitors” (Bioorg Med Chem Lett, 2013).

The target of test [1] is T1, Serine/threonine-protein kinase Chk1 (Homo sapiens, UniProt O14757).
T1 sequence (O14757 whole entry): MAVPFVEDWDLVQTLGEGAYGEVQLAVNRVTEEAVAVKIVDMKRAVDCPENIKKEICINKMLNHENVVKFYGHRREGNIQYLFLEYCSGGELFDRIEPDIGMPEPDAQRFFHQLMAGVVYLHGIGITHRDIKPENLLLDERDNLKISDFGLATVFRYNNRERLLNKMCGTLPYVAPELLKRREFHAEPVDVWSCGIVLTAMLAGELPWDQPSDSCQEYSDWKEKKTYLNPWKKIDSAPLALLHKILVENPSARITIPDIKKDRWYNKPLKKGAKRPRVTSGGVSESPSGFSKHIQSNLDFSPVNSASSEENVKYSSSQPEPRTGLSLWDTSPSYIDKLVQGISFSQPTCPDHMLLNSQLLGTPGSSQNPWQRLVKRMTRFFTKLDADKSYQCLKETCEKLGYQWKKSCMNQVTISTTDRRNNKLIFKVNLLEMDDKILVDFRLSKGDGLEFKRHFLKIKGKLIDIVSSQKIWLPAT
In words: Inhibition of CHK1 in human U2OS cells assessed as phosphorylation of H2AX after 2 hrs by FITC/propidium iodide staining-based immunofluorescence assay in presence of hydroxyurea. The test is classed as cell-based.

The target in test [2] is T1, Serine/threonine-protein kinase Chk1.
For test [3] the target is unchanged. In words: Inhibition of human CHK1.

As to `COc1ccc2c(c1)C(=O)N(c1nc(C(=O)Nc3cnccc3N3CCNCC3)cs1)C2`, in test [1], the 50% effective concentration (EC50) (commonly the midpoint of the concentration-response curve) is 30 nM. The IC50 – broadly, the concentration at which inhibition is half-maximal – is 1 nM in test [2] and 3.7 nM in test [3].
